# Assay results from patent publication US8105608B2, “Method of treatment using ligand-immunogen conjugates” (Purdue Research Foundation, priority 2000, dated 2012).
# Test system: M109 cells
# Assay: Survival of mice with M109 cells implanted intraperitoneally close to the liver
# Assay type: in vivo
substance,measurement,setting,value
"IL-2: recombinant human IL-2, cytokine to stimulate the immune system","long term survival, comparison of cytokine treatments","Example 5, after 2 doses of 1500 nmol/kg folate-FITC days 4 and 7, IL-2 5000 IU days 8-12, IFN-α 2.5×10^4 U/day, IL-12 0.5 μg/day, TNF-α 2 μg/day",more effective at promoting long term survival of animals than was combination treatment with IL-2 and IL-12 or with IL-2 and TNF-α
same,median survival time,"Example 7, folate-FITC 1500 nmoles/kg, IL-2 5000 IU, n=8, control 18 days",19 days
same,effect on long-term survival of tumor-bearing mice,"Example 7, folate-FITC 1500 nmoles/kg, low-dose IL-2",negligible effect
same,"median survival time, effect of IL-2 dose","Example 10, folate-FITC 1500 nmoles/kg with IL-2 5×10^3 to 5×10^5 IU days 7, 8, 9, 11, 14, FITC-KLH immunized",no substantial difference
